This note sets out measurements from patent publication US10968225B2, “Compounds and compositions for the treatment of cystic fibrosis” (Fondazione Istituto Italiano Di Tecnologia, priority 2017, dated 2021).

The chains behind the UniProt entries cited, without tags or fusion partners. A line that says so, or that is headed by a name, gives the form on record, which may keep a tag or linker. Residues count along the entry.
UniProt P13569, 1-1480 with tags or gaps DEL508-508: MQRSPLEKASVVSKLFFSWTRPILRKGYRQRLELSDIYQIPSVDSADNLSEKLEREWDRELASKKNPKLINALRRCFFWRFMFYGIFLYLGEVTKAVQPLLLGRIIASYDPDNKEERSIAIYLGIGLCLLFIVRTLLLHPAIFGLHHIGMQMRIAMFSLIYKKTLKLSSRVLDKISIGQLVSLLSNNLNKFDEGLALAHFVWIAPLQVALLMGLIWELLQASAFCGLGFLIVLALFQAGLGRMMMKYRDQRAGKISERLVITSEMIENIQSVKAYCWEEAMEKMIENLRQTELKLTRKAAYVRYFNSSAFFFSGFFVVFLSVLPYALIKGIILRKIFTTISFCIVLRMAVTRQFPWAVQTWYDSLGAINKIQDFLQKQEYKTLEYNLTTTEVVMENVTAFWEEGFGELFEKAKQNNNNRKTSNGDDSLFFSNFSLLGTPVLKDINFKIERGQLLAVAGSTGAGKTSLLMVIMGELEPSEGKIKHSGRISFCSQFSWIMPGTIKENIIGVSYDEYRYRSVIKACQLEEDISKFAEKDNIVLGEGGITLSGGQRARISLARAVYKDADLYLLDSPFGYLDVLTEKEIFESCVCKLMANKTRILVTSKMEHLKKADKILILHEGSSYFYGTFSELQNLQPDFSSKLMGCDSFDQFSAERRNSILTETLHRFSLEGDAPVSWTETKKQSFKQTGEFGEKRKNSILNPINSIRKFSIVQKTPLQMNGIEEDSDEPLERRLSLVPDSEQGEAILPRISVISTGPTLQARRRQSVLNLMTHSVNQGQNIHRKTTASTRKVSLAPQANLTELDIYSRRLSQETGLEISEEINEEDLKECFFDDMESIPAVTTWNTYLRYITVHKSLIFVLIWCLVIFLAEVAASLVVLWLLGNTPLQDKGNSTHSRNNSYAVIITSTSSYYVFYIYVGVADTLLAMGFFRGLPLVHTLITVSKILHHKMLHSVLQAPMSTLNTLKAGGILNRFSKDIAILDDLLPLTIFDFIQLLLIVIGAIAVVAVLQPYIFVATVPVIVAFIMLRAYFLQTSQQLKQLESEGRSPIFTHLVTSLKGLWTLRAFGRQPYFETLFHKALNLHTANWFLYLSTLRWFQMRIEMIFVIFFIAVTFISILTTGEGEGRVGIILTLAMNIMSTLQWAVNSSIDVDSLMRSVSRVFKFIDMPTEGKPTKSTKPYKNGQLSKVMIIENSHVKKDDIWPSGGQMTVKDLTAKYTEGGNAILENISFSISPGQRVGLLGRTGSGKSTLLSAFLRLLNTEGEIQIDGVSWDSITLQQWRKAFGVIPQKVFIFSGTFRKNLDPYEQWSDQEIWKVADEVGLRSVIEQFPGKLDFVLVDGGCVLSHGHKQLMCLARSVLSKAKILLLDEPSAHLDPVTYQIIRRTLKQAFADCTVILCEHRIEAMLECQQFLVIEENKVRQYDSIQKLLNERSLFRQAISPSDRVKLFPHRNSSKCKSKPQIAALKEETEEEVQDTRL

Bounds are passed on as bounds.

The experiment deals with mutant CFTR (Homo sapiens, UniProt P13569, DEL508-508). Briefly: Fluorescence (HS-YFP) assay for CFTR activity, corrector assay. In kind it is cell-based.
The molecule `Cc1nn(C)c(C)c1S(=O)(=O)N1CCc2c(c(C(F)(F)F)nn2-c2cccc(C(=O)N(C)c3ccc4c(c3)OCO4)c2)C1` displayed an EC50 of under 1000 nM.
For the molecule `COC(=O)CC(=O)N1CCc2c(c(C(F)(F)F)nn2-c2cccc(C(=O)N(C)c3ccc4c(c3)OCO4)c2)C1`, the EC50 is 1000 to 2000 nM.
`CN(C(=O)c1cccc(-n2nc(C(F)(F)F)c3c2CCN(C(=O)CC(=O)O)C3)c1)c1ccc2c(c1)OCO2` displayed an EC50 of over 2000 nM.
`CN(C(=O)c1cccc(-n2nc(C(F)(F)F)c3c2CCN(S(=O)(=O)C2CCOCC2)C3)c1)c1ccc2c(c1)OCO2` returned an EC50 of under 1000 nM.
With `Cc1cnn(C)c1S(=O)(=O)N1CCc2c(c(C(F)(F)F)nn2-c2cccc(C(=O)N(C)c3ccc4c(c3)OCO4)c2)C1` the figure was under 1000 nM.
